Laboratory results published in PubChem BioAssay AID485298 (National Center for Advancing Translational Sciences (NCATS), 2010).
Out of some 320,000 compounds screened, about 740 (0.23%) were called active. All entries are inconclusive by the source's own rule. Clear calls are listed elsewhere. The call rests on the fitted dose curve; in most records, active means well fitted activation curve with a large enough effect; inconclusive means small, poorly fitted or top-dose-only effect; inactive means no such curve, though single readings can be large or run the other way.

Experiment: qHTS Assay for Small Molecule Inhibitors of Mitochondrial Division or Activators of Mitochondrial Fusion; further: nearly all actives have a fitted effect of over 45% in size
Conditions: S. cerevisiae fusion-defective mutant growth rescue, CellTiterGlo 48 h
From the text: NIH Chemical Genomics Center [NCGC] NIH Molecular Libraries Probe Production centers Network [MLPCN] MLPCN Grant: MH081279-01 Assay Submitter (PI): Jodi M. Nunnari NCGC Assay Overview: The budding yeast S. cerevisiae is a powerful system to study mitochondrial fusion. Unlike other organisms, yeast cells without functional mitochondrial DNA (mtDNA) can be propagated and studied as long as they maintain a mitochondrial compartment and are provided with a fermentable carbon source. When mitochondrial fusion is blocked in yeast, mitochondrial tubules rapidly fragment and division continues unopposed. Under conditions where fusion is compromised in mammalian cells, nearly identical changes in mitochondrial structure have been observed. Thus, these findings indicate that steady state mitochondrial structure in cells is a characteristic and specific indicator of fusion activity. […] We have developed and optimized a luminescence cell viability assay in 1536 well format for the identification of inhibitors in the yeast mitochondrial fusion-defective assay.
The yeast glycerol stocks where kindly supplied by the laboratory of Dr. Jodi Nunnari, University of California, Davis. […] The CellTiterGlo luminescence reagent, containing luciferase and luciferin, were purchased from Promega, and the reagents were stored according to manufacturer's instructions. […] 7.#Read using bio-luminescence protocol on Viewlux.
Potency means the concentration at half of the fitted maximal effect.

Q: For `Nc1cccc2ccc([As](=O)(O)O)cc12`, which Potency is on record?
A: inconclusive: 5.62 µM

Q: Which Potency does the source give for `C=C(C=O)C[C@@H]1C[C@H](O)C2OC3C[C@]4(C)OC5/C=C\CC6OC7C(CC=CCC6OC5CCCC4OC3CC2O1)OC1CC2OC3CC(=O)OC3C[C@@H](C)C[C@@]2(C)OC1C[C@@H]7C` (some centres not stated) here?
A: inconclusive: 12.6 µM
